Bioassay records from PubChem.
Giardia kill = Giardia lamblia killing. Giardia lamblia trophozoite viability. activity change, % at 7.66 µM, hits read low. actives 0.15% (n = 340,000); in the data active = activity change below about -80%; inconclusive = between about -30% and that limit;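 also: parasites exposed to compound for two days anaerobically before the ATP read; % is scaled to controls: 0 for no effect and ±100 for the full control effect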
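Killing of trophozoites was scored by loss of ATP luminescence after a 48 hrs anaerobic exposure to compounds at 37 deg C, using 100 cells per well.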
Coupling enz = counter-screen for Giardia aldolase inhibitors: coupling enzyme system; activity change, negative = inhibition, % at 58.2 µM, hits read low; actives 0.67% (n = 290,000); AID 2472; coupling enzyme system counterscreen, AmpLite Red fluorescence; in the data active = activity change below about -30%; also: % is scaled to controls: 0 for no effect and ±100 for the full control effect
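Fluorescence at 525 nm excitation and 598 nm emission measured inhibition of the coupled detection system without aldolase. Compounds (at 57.5 uM final) were preincubated 10 min at room temperature with coupling enzyme reagent before a 20 min substrate/AmpLite Red step.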
miR-21 reporter = raises the signal of a miR-21 reporter; AID 2288; 340,000 tested, under 10 active; Potency, µM (doses to about 38.3 µM), inactives show at the top dose reporter change, positive = more light; HeLa miR-21 FLuc reporter, luciferase, 48 h; active = well fitted rising curve with a large enough effect; inconclusive = small, poorly fitted or top-dose-only effect; inactive = no such curve, though single readings can be large or run the other way;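 note: % of control where 0% means no effect; miR-21 action dims this reporter so a rising signal means less miR-21 action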
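Luminescence from a firefly luciferase reporter carrying a miR-21 binding site downstream, stably expressed under a CMV promoter in HeLa cells that make miR-21 endogenously, reports miRNA modulation after 48 h compound exposure up to approximately 40uM final.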
GALK inhibitor = galactokinase (human) inhibition. AID 1868. Potency, µM (top dose mostly 57.5 µM), inactives show top-dose activity change, negative = inhibition, hits mostly inhibitors. actives 0.007% (n = 270,000). P51570. Purified GALK, Kinase-Glo residual ATP luminescence; also: potency is read from the fitted curve at half-maximal effect; % is scaled to controls: 0 for no effect and ±100 for the full control effect
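Kinase-Glo Plus luminescence measured ATP left after a 1 h room-temperature reaction. The reaction used 5 nM GALK, 100 uM galactose and 35 uM ATP at pH 8.0 (20 mM HEPES, 5 mM MgCl2, 60 mM NaCl, 1 mM DTT, 0.01% BSA).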
B2AR arrestin = agonists driving beta-arrestin recruitment to human beta2-adrenergic receptor; P07550; beta-arrestin recruitment to beta2AR, cell-based reporter; Potency, µM (doses to about 46.1 µM), for inactives: at the highest dose activation, actives largely listed as activators; actives 0.02% (n = 330,000);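 also: potency is read from the fitted curve at half-maximal effect; 0% = DMSO controls and full agonism = EC100 isoproterenol or metaproterenol; nearly all actives have a fitted effect of over 65% in size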
uPA generation = cell surface uPA generation inhibition | cell surface uPA generation assay, qHTS | Potency, µM (series often up to 38.3 µM), for the others: at the top dose activity change, negative = inhibition, most hits filed as inhibitors | actives 0.31% (n = 330,000) | AID 540303; active = well fitted inhibition curve with a large enough effect; inconclusive = small, poorly fitted or top-dose-only effect; inactive = no such curve, though single readings can be large or run the other way; tested in mouse RAW 264.7 cells; also: potency is read from the fitted curve at half-maximal effect; % is scaled to controls: 0 for no effect and ±100 for the full control effect; nearly all actives have a fitted effect of over 55% in size
An asterisk follows results filed as active; ? = inconclusive; nt = no result; ! = not confirmed by another sample. This is a sample that favours compounds with a hit; in the whole collection about 0.92% have one here. Unless noted, calls follow the shape of the dose curve; as a rule, active = well fitted curve in the direction sought with a large enough effect; inconclusive = small, poorly fitted or top-dose-only effect, or another doubt; inactive = no such curve, though single readings can be large; an effect the other way counts as inactive or inconclusive.

Preview (3 entries):
Screens by letter: A = Giardia kill; B = Coupling enz; C = miR-21 reporter; D = GALK inhibitor; E = B2AR arrestin; F = uPA generation
CCc1ccc(S(=O)(=O)/N=C2\C=C(Nc3cccc(C(=O)O)c3)C(=O)c3ccccc32)cc1
  A: 3.4; B: -44.2*; C: ?; D: -29.9%; E: -0.3%; F: -5.0%

CCc1ccc(S(=O)(=O)/N=C2\C=C(Nc3ccc(O)cc3)C(=O)c3ccccc32)cc1
  A: -18.5; B: -35.3*; C: ?; D: 6.1%; E: 0.6%; F: -3.4%

COc1ccccc1C1C([N+](=O)[O-])=CC([N+](=O)[O-])=CN1C (stereo unspecified)
  A: -82.7*; B: -5.8; C: -13.7%; D: 0.9%; E: -0.3%; F: -9.4%

The whole of this part, from the first entry:
Screens by letter: A = Giardia kill; B = Coupling enz; C = miR-21 reporter; D = GALK inhibitor; E = B2AR arrestin; F = uPA generation
CCc1ccc(S(=O)(=O)/N=C2\C=C(Nc3cccc(C(=O)O)c3)C(=O)c3ccccc32)cc1
  A: 3.4; B: -44.2*; C: ?; D: -29.9%; E: -0.3%; F: -5.0%

CCc1ccc(S(=O)(=O)/N=C2\C=C(Nc3ccc(O)cc3)C(=O)c3ccccc32)cc1
  A: -18.5; B: -35.3*; C: ?; D: 6.1%; E: 0.6%; F: -3.4%

COc1ccccc1C1C([N+](=O)[O-])=CC([N+](=O)[O-])=CN1C (stereo unspecified)
  A: -82.7*; B: -5.8; C: -13.7%; D: 0.9%; E: -0.3%; F: -9.4%

Nc1nnc2c(n1)CCCC2
  A: -3.4; B: -30.2*; C: -20.3%; D: -2.9%; E: -0.1%; F: 3.2%

CCOC(=O)c1c(C)[nH]c(C)c1S(=O)(=O)N1CCCC(C(=O)NCc2cccc(OC)c2)C1 (stereo unspecified)
  A: nt; B: nt; C: -1.2%; D: nt; E: nt; F: nt

Cc1ncoc1C(=O)Nc1nccs1
  A: 9.2; B: 0.0; C: -6.0%; D: -0.4%; E: 0.0%; F: nt

CC12CCC(C(=O)Nc3ncc([N+](=O)[O-])s3)(OC1=O)C2(C)C (stereo unspecified)
  A: -85.9*; B: 0.6; C: -0.9%; D: -0.3%; E: -0.5%; F: nt

CCCCC(CC)C(=O)Nc1ncc([N+](=O)[O-])s1 (stereo unspecified)
  A: -91.3*; B: 1.6; C: -1.8%; D: 1.0%; E: -0.2%; F: -1.9%

Cc1ncoc1C(=O)Nc1ncc([N+](=O)[O-])s1
  A: -86.9*; B: 1.2; C: -19.2%; D: 7.2%; E: -0.1%; F: -4.1%

COc1ccc(OC)c2sc(NC(=O)CCS(=O)(=O)c3ccccc3)nc12
  A: 26.1; B: nt; C: nt; D: nt; E: nt; F: 7.08µM*

Cc1ccc(NC(=O)N2CCC(CN3CCCC3)CC2)c(C)c1
  A: nt; B: nt; C: -1.3%; D: nt; E: nt; F: nt

COc1cccc(Cn2c(=O)n(CC3CCC(C(=O)N4CCCCC4)CC3)c(=O)c3sccc32)c1 (stereo unspecified)
  A: nt; B: nt; C: 28.9%; D: nt; E: nt; F: nt

Cc1cc(C)c2c(c1)c(C)cc1nnc(SCC(=O)c3ccc(F)cc3)n12
  A: nt; B: nt; C: -7.4%; D: nt; E: nt; F: nt

O=C(Nc1nnc2n1CCS2)c1ccc(F)cc1F
  A: nt; B: nt; C: -20.4%; D: nt; E: nt; F: nt

O=C(COC(=O)c1ccc(Br)o1)Nc1ncc([N+](=O)[O-])s1
  A: ?; B: nt; C: nt; D: nt; E: -0.2%; F: 3.0%

O=C(/C=C/c1ccc([N+](=O)[O-])cc1)NCc1ccccn1
  A: -0.5; B: 2.9; C: -9.6%; D: nt; E: -1.0%; F: -1.8%

Cc1ccc(S(=O)(=O)CC(=O)Nc2ncc([N+](=O)[O-])s2)cc1
  A: -83.9*; B: 5.7; C: -0.4%; D: 5.2%; E: 0.0%; F: -0.7%

O=C(/C=C/c1ccc([N+](=O)[O-])cc1)Nc1ncc([N+](=O)[O-])s1
  A: -82.4*; B: 7.6; C: -26.2%; D: -1.7%; E: -1.0%; F: ?

O=C(CS(=O)(=O)c1ccccc1)Nc1ncc([N+](=O)[O-])s1
  A: ?; B: 7.5; C: -4.2%; D: -1.3%; E: -1.2%; F: 2.3%

Cc1ccc(CC(=O)Nc2ncc([N+](=O)[O-])s2)cc1
  A: -91.5*; B: 8.1; C: -37.4%; D: -0.7%; E: 0.4%; F: 2.6%

O=C(CCS(=O)(=O)c1ccccc1)Nc1ncc([N+](=O)[O-])s1
  A: -80.7*; B: 4.1; C: 17.7%; D: 3.6%; E: -0.5%; F: -16.4%

CCN1CCN(Cc2c(O)ccc3c(=O)c(Oc4ccccc4Cl)c(C(F)(F)F)oc23)CC1
  A: nt; B: nt; C: -2.4%; D: nt; E: nt; F: nt

CCCCCCCCCCCCCCCCn1cc[n+](Cc2ccccc2)c1C
  A: nt; B: 0.0; C: nt; D: nt; E: nt; F: nt

O=C(Nc1ncc([N+](=O)[O-])s1)c1ccccc1Br
  A: -92.6*; B: -2.7; C: -31.1%; D: -3.4%; E: 0.4%; F: ?

COc1ccccc1-n1c(-c2ccccc2)c[n+]2c1CCc1ccccc1-2
  A: -4.7; B: 2.5; C: ?; D: 3.6%; E: 0.4%; F: 11.2µM*!

CC(C)c1ccc(-n2c(-c3ccccc3)c[n+]3c2CCc2ccccc2-3)cc1
  A: -0.4; B: 1.0; C: 28.1%; D: -1.6%; E: 4.4%; F: ?

COc1ccc(-n2c(-c3ccc(Br)cc3)c[n+]3c2CCc2ccccc2-3)cc1
  A: 1.4; B: 1.4; C: ?; D: -1.3%; E: 4.5%; F: 5.01µM*

COc1ccc(C[C@H](N)C(=O)N[C@H]2[C@@H](O)[C@H](n3cnc4c(N(C)C)ncnc43)O[C@@H]2CO)cc1
  A: 1.2; B: nt; C: nt; D: nt; E: 0.4%; F: 1µM*

CN(C)c1ncnc2c1ncn2C1OC(CO)C(O)C1O (stereo unspecified)
  A: -6.7; B: -1.0; C: 13.3%; D: 0.6%; E: 0.1%; F: -13.3%

O=C(NC1=C(Nc2ccc(F)cc2)C(=O)c2ccccc2C1=O)c1ccc(Cl)cc1
  A: 7.3; B: -42.3*; C: 1.3%; D: -2.9%; E: 0.0%; F: -11.1%

CCn1c(=O)cc(SCC(=O)NCc2ccc(Cl)cc2)c2ccccc21
  A: nt; B: nt; C: 13.5%; D: nt; E: nt; F: nt

Cc1ccc(-c2nc(-c3cc4cc(Cl)ccc4oc3=O)sc2C)cc1
  A: -26.7; B: nt; C: nt; D: nt; E: nt; F: nt

CC1(C)CC(=O)C2=C(C1)N(c1ccccc1)C(=O)C(C(=O)OCc1ccccc1)C2 (stereo unspecified)
  A: 5.1; B: nt; C: nt; D: nt; E: nt; F: 4.6%

CC1(C)CC(=O)C2=C(C1)N(c1cccc(O)c1)C1=C(C2)C(=O)CC(C)(C)C1
  A: -1.7; B: -36.1*; C: -2.7%; D: 1.9%; E: -0.2%; F: 3.4%

COc1ccc(NC(=O)c2oc3ccccc3c2NC(=O)c2cc(=O)c3c(C)cc(C)cc3o2)cc1
  A: nt; B: nt; C: -10.8%; D: nt; E: nt; F: nt

O=c1c2ccccc2sn1-c1ccc(S(=O)(=O)N2CCOCC2)cc1
  A: -14.6; B: nt; C: nt; D: nt; E: nt; F: nt

CCN1CCN(CCOCCOc2ccccc2-c2ccccc2)CC1
  A: nt; B: 0.1; C: -0.9%; D: -1.0%; E: -0.2%; F: nt

c1ccc(-c2ccccc2OCCOCCN2CCOCC2)cc1
  A: -2.8; B: -50.9*; C: -3.9%; D: -6.8%; E: -1.2%; F: -1.6%

O=C(/C=N/O)NCCCCNC(=O)/C=N/O
  A: nt; B: -3.9; C: nt; D: nt; E: nt; F: nt

CC(C)N1CC(C(=O)Nc2cc(Cl)cc(Cl)c2)CC1=O (stereo unspecified)
  A: 6.2; B: -4.1; C: -2.0%; D: 1.4%; E: -0.9%; F: 7.08µM*

CC(C)N1CC(C(=O)Nc2ccc(Cl)c(Cl)c2)CC1=O (stereo unspecified)
  A: 25.0; B: 0.0; C: -3.8%; D: -6.8%; E: 0.4%; F: -8.4%

Cc1nc2ccc(Cl)cc2nc(C)/c1=N\O
  A: -0.9; B: -32.6*; C: -46.1%; D: -5.9%; E: -3.3%; F: -1.1%

CSc1nc(-c2ccco2)nn1S(=O)(=O)c1ccc(C)cc1
  A: ?; B: -34.3*; C: -13.3%; D: -1.7%; E: -0.3%; F: -4.9%

CCS(=O)(=O)n1nc(-c2ccco2)nc1SC
  A: 6.4; B: -75.9*; C: 1.0%; D: 1.3%; E: nt; F: 1.2%

COc1ccc(C(=O)N(Cc2ccco2)Cc2cccs2)c(OC)c1
  A: 15.0; B: nt; C: nt; D: nt; E: nt; F: nt

CC(C)c1cnc2c(c1SCC(=O)Nc1cccc(F)c1)c(=O)n(C)c(=O)n2C
  A: nt; B: nt; C: 3.1%; D: nt; E: nt; F: nt

CCCc1ccc(/C=C2\C(=O)c3ccccc3C(O)=C2C(=O)OCC)cc1
  A: nt; B: -37.2*; C: ?; D: -2.7%; E: -0.1%; F: nt

CCOC(=O)C1=C(C)N(c2ccccc2)C(=O)/C1=C\c1ccc(O)c(OC)c1
  A: 6.3; B: 2.9; C: -4.1%; D: -0.3%; E: 0.1%; F: -13.7%

CCOC(=O)C1=C(O)c2ccccc2C(=O)/C1=C\c1ccc(CC)cc1
  A: -8.2; B: -47.6*; C: ?; D: -2.9%; E: -0.1%; F: nt

Cc1ccc(-c2ccccc2NC(=O)CCl)o1
  A: -15.6; B: -49.5*; C: -2.3%; D: nt; E: 0.1%; F: -10.3%
